Experimental data reported in PMC7549094 (Journal of Medicinal Chemistry, 2020).

Key:
[1] = dissolution study and supersaturation stability in FASSIF; type: physicochemical; conditions: fumarate cocrystal of 1 vs free base of 2

## Cc1nc(C)c(C(=O)Nc2ccc(F)c(-c3nc4ncc(-c5ncccc5C)cn4n3)c2)o1 [compound 1, N-(4-Fluoro-3-(6-(3-methylpyridin-2-yl)-[1,2,4]triazolo[1,5-a]pyrimidin-2-yl)phenyl)-2,4-dimethyloxazole-5-carboxamide]
R BZD
  EC50/IC50: > 30 µM
[1]
  supersaturation in FASSIF relative to free base of compound 2: 5 fold
H Nic(cns)
  EC50/IC50: > 30 µM
H PDE3
  EC50/IC50: > 30 µM
Hr GABAA antag
  EC50/IC50: > 30 µM
Hr GABAA ag
  EC50/IC50: > 30 µM
